Data set [1] addresses aspartate kinase III (LysC) (Escherichia coli, UniProt P08660, V115A/E119S/E434V).
The subject of another data set is O=C(O)CC(O)C(=O)O. As to the kind of experiment: purified protein. The settings on record: ATP, Mg2+ active site (substrate pocket).
Data set [2] deals with Nc1ncnc2c1ncn2[C@@H]1O[C@H](COP(=O)(O)OP(=O)(O)OP(=O)(O)O)[C@@H](O)[C@H]1O. Description: purified protein. The note with it: Mg2+.
Substrate in the data set “purified protein”: Nc1ncnc2c1ncn2[C@@H]1O[C@H](COP(=O)(O)OP(=O)(O)OP(=O)(O)O)[C@@H](O)[C@H]1O
Description: purified protein. The settings on record: Mg2+. The source holds these as a separate data set.

[3] abbreviates: Ser39 and Thr45 side-chains to the 2-OH group in the model.

With `O=C(O)CC(O)C(=O)O` (centres unmarked) [(L)-malate], the “ADP/NAD+ acid/alkali end-point kinase assay on crude extracts of the isolated cl” value in data set [1] is given as “the best mutant, LysC V115A:E119S:E434V exhibited strong substrate selectivity for (L)-malate compared to (L)-aspartate”.

By Km is commonly meant the concentration of substrate that gives half-maximal velocity. In general, kcat refers to the maximal rate divided by the concentration of active sites. A word on the kcat/Km: it is the second-order rate constant that governs catalysis at low substrate concentration. Take “aspartate kinase III (LysC) (Escherichia coli K-12; E119C/V115A)”: in the data set on O=C(O)CC(O)C(=O)O, the Michaelis constant (Km) is recorded as 10.29 mM, the turnover number (kcat) came out at 5.5 s⁻¹ and the kcat/Km turned out to be 530 M⁻¹ s⁻¹. In data set [2], the Km was 0.35 mM.

Turning to “aspartate kinase III (LysC) (Escherichia coli K-12; E119S/E434V)”, in the data set on O=C(O)CC(O)C(=O)O, the Km came to 13.11 mM, the kcat came to 1.59 s⁻¹ and the catalytic efficiency (kcat/Km) was found to be 120 M⁻¹ s⁻¹.

With “aspartate kinase III (LysC) (Escherichia coli K-12; E119S/E434V/V115A)”, in data set [2], the Km is given as 0.67 mM.

As for “aspartate kinase III (LysC) (Escherichia coli K-12; E119S/V115A)”, in the data set on O=C(O)CC(O)C(=O)O (setting [3]), the Km was 9.5 mM, the kcat amounted to 4.96 s⁻¹ and the kcat/Km amounted to 520 M⁻¹ s⁻¹. Moreover, the Km in data set [2] is recorded as 0.41 mM.

B1: aspartate kinase III (LysC) (Escherichia coli K-12) (protein)
chain: SEIVVSKFGGTSVADFDAMNRSADIVLSDANVRLVVLSASAGITNLLVALAEGLEPGERFEKLDAIRNIQFAILERLRYPNVIREEIERLLENITVLAEAAALATSPALTDELVSHGELMSTLLFVEILRERDVQAQWFDVRKVMRTNDRFGRAEPDIAALAELAALQLLPRLNEGLVITQGFIGSENKGRTTTLGRGGSDYTAALLAEALHASRVDIWTDVPGIYTTDPRVVSAAKRIDEIAFAEAAEMATFGAKVLHPATLLPAVRSDIPVFVGSSKDPRAGGTLVCNKTENPPLFRALALRRNQTLLTLHSLNMLHSRGFLAEVFGILARHNISVDLITTSEVSVALTLDTTGSTSTGDTLLTQSLLMELSALCRVEVEEGLALVALIGNDLSKACGVGKEVFGVLEPFNIRMICYGASSHNLCFLVPGEDAEQVVQKLHSNLFE
For B1, the Michaelis-Menten constant (Km) in “purified protein” worked out at 0.33 mM.

Source of the values: PMC5819781, “A generic HTS assay for kinase screening: Validation for the isolation of an engineered malate kinase” (PLoS ONE, 2018).
